Measurements reported in the NIST ThermoML archive (doi:10.1016/j.jct.2015.05.014).
Numbers after ± are expanded uncertainties.

Assay: activity coefficient (dimensionless); of the first substance listed, at infinite dilution; xn = mol fraction of the nth substance listed
Details: 100 kPa, Liquid, Chromatography, x1 = 0

CCCCOCCCC [dibutyl ether] + CC(O)C(=O)[O-].CC[N+]1(C)CCCC1
Details | activity coefficient
308.15 K | 142 ± 12
318.15 K | 133 ± 12
328.15 K | 125 ± 11
338.15 K | 118 ± 10
348.15 K | 110 ± 10
358.15 K | 105 ± 9
368.15 K | 98.8 ± 8.6
